Laboratory results published in US20140178318A1, “NOVEL COMPOUNDS” (DSM IP ASSETS B.V., priority 2009, published 2014).

Legend:
[1] = Reduction of solvent necessary to dissolve solid UV-filter (BMDBM); type: physicochemical
From the text: a.) 2.0 g of diisopropyl sebacate are necessary to solubilize 0.5 g BMDBM. However, only 1.4 g of a 1:1 (w/w) mixture of PG-UVA2 of example 1 and diisopropyl sebacate is needed to dissolve 0.5 g BMDBM resulting in a reduction of the cosmetic solvent necessary to dissolve BMDBM of 65%.
b) 3.0 g of C12-15 alkyl benzoate are necessary to solubilize 0.5 g BMDBM, whereas only 2.0 g of a 1:1 (w/w) mixture of PG-UVA2 of example 2 and C12-15 alkyl benzoate is necessary to dissolve 0.5 g of BMDBM resulting in a reduction of the cosmetic solvent necessary to dissolve BMDBM of 66%.

[2] = Solubility of BMDBM and BEMT in C12-15 alkyl benzoate and in 1:1 mixtures with PG-UVA1/PG-UVA2
[3] = Comparative example: solubility of BMDBM in 1:1 mixture of C12-15 alkyl benzoate and other UV-filter; settings: solvent alone, baseline repeated under each UV-filter column
[4] = e.g. C12-15 alkyl benzoate, dibutyl adipate or diisopropyl sebacate; typical value; cited from earlier work
[5] = C12-15 alkyl benzoate/PG-UVA1 1:1 versus C12-15 alkyl benzoate

Substance: Butyl Methoxydibenzoylmethane [BMDBM]
- amount of C12-15 alkyl benzoate necessary to solubilize 0.5 g BMDBM ([1]; C12-15 alkyl benzoate alone): 3.0 g
- amount of diisopropyl sebacate necessary to solubilize 0.5 g BMDBM ([1]; diisopropyl sebacate alone): 2.0 g
- re-crystallization on storage ([2]; 200 mg BMDBM in 800 mg C12-15 alkyl benzoate/PG-UVA1 1:1, 1 month at RT): no re-crystallization occurred
- Δ solubility relating to cosmetic solvent (BMDBM) ([2]; C12-15 alkyl benzoate/PG-UVA1 1:1): +13 wt.-%
- Increase of solubility BMDBM [2, 5]: +42%
- Δ solubility of BMDBM [2, 5]: +6 wt.-%
- Solubility in C12-15 alkyl benzoate ([2]; saturation of the solvent, content in supernatant by HPLC): 14 wt.-%
- Solubility of BMDBM in C12-15 alkyl benzoate [3]: 14 wt.-%
- solubility in the conventional cosmetic oils [4]: less than 20%
